Assay results: article PMC3440242 (Peptides, 2012)

Experiments:
human Y2 receptor [1] = assay: Unmasking of surface human Y2 receptor in adherent CHO cells; type: cell-based
human Y2 receptor [2] = assay: Internalization; type: cell-based; conditions: NEM, MTSET 30 μM; EDTA 1 mM (cell detachment)

| SMILES | unmasking of surface Y2-CHO sites (in words) (human Y2 receptor [1]) | effect on internalization of agonist (in words) (human Y2 receptor [2]) |
| --- | --- | --- |
| C[C@H](CCC(=O)O)[C@H]1CC[C@H]2[C@@H]3[C@H](O)C[C@@H]4C[C@H](O)CC[C@]4(C)[C@H]3C[C@H](O)[C@]12C [cholate] | inactive at 100 μM in hY2-CHO unmasking |  |
| O=C(O)CN(CCN(CC(=O)O)CC(=O)O)CC(=O)O [EDTA] |  | significantly reduced internalization of agonists |
